The record followed here is paper PMC7709103.

This assay addresses Natalizumab, a recombinant IgG4 with a native human IgG4 hinge. Description: Förster resonance energy transfer (FRET) Fab arm exchange assay. The settings on record: 1 mM glutathione reducing conditions (Reduced bars); parent: est. 27; read off a plot.

Take “hinge deleted humanized IgG4 mAb (kappa light chain) R409K”: the response came to 6.7 RFU.
